Reference: patent US20100028414A1, “COMBINATION OF TYROSINE KINASE INHIBITOR AND HER-2/NEU FOR CANCER THERAPY” (priority 2004, published 2010)

How the values were obtained:
Assay type in all cases: cell-based, human
phospho-Akt = test: Western blot of activated phospho-Akt, BT474 cells; conditions: 72 hr, FIG. 13
Method: (§1) To assess the levels of various proteins in cells, whole cell extracts were prepared by scraping cells off petri dishes, washing the cell pellet twice in phosphate buffered saline (PBS), and then resuspending the pellet in two-packed-cell volumes of RIPA buffer(150 mM NaCl, 50 mM Tris-HCl, pH 7.5, 0.25% (w/v) deoxycholate, 1% NP-40, 5 mM sodium orthovanadate, 2 mM sodium fluoride, and a protease inhibitor cocktail). Protein concentrations were determined using a modification of the Bradford method (Bio-Rad Laboratory). […] The immunoprecipitates were separated by 4-15% gradient SDS-polyacrylamide […] gel electrophoresis (SDS-PAGE), and ErbB receptors were detected by Western Blot with anti-ErbB receptor antibodies.
(§2) Steady state levels of Survivin, total ErbB2, phosphorylated ErbB2 (pErbB2 or pTyr), total Erk1/2 , activated Erk1/2 (p-Erk), total pErbB3, activated pErbB3 (pErbB3), total AKT protein and activated Akt (p-Akt) protein were assessed by Western blot. Levels of pErbB2 were assessed using an antibody that bound to multiple tyrosine-phosphorylated forms of ErbB2 (i.e., the antibody was not phosphorylation-site specific). […]
(§3) For Western blot, equal amounts of proteins were resolved by either 7.5% or 4-15% gradient SDS polyacrylamide gel electrophoresis under reducing conditions. […] Efficiency and equal loading of proteins was evaluated by Ponceau S staining. […]

phospho-Erk1/2 = test: Western blot of activated phospho-Erk1/2, BT474 cells; conditions: 72 hr, FIG. 13
Method: as §1, §2, §3

BT474 cells = test: Apoptosis by annexin V staining and flow cytometry, BT474; conditions: lapatinib 0.1 μM, pAb 100 μg/ml, trastuzumab 10 μg/ml, 72 hr, FIG. 12A top
Method: After harvesting the cells with trypsin-EDTA, 5000 cells in 50 μl were sampled on 96-well microplates. The cells were stained directly in the microplate with Annexin V-PE and Nexin 7-AAD in 1× Nexin Buffer in a 200 μl final reaction volume. After incubating for 20 minutes at room temperature, the reaction samples were ready to be acquired in the Guava PCA-96-system (Guava Technology, Inc., Hayward, Calif. USA).
7-AAD binds to cellular nuclear material after cellular membranes break down in late apoptosis. Annexin-V staining indicates early apoptotic changes that precede the loss of cellular membrane integrity. Use of Annexin-V in conjunction with 7-amino-actinomycin D (7-AAD) thus can identify both early and late apoptotic cells.
Flow cytometry results were graphed as dot plot results (not shown) with annexin V on the X-axis and 7-AAD on the Y-axis. Low annexin V and low 7-AAD represented viable cells; low annexin V and high 7-AAD indicated nuclear debris; cells with high annexin V staining indicated apoptotic cells. The graphs provided in FIGS. 12A, 12C, 15A, and 16 show the percentage of apoptotic cells (high annexin V) compared to total cells.

survivin = test: Western blot of steady state survivin protein, BT474 cells; conditions: lapatinib 0.1 μM, pAb 100 μg/ml, trastuzumab 10 μg/ml, 72 hr, FIG. 12A bottom
Method: as §1, §2, §3

“trastuzumab: humanized monoclonal antibody to HER-2/neu” was tested, and the “steady state levels of pAkt” value (phospho-Akt) was “inhibited by trastuzumab, although less than that observed with pAb”, the “steady state levels of pErk1/2” value (phospho-Erk1/2) was “inhibited by trastuzumab, although less than that observed with pAb” and the apoptosis (BT474 cells) was “slight increase in apoptosis”. For the same substance, the survivin protein expression (survivin) was “little effect on survivin”.
